Reference: ChEMBL document CHEMBL1140307, “Design and synthesis of alpha-aryloxyphenylacetic acid derivatives: a novel class of PPARalpha/gamma dual agonists with potent antihyperglycemic and lipid modulating activity” (J Med Chem, 2005)

The chains behind the UniProt entries cited, without tags or fusion partners. Where a name states a change or a piece, a line headed by the entry shows the natural chain unless it says otherwise.
UniProt P37231: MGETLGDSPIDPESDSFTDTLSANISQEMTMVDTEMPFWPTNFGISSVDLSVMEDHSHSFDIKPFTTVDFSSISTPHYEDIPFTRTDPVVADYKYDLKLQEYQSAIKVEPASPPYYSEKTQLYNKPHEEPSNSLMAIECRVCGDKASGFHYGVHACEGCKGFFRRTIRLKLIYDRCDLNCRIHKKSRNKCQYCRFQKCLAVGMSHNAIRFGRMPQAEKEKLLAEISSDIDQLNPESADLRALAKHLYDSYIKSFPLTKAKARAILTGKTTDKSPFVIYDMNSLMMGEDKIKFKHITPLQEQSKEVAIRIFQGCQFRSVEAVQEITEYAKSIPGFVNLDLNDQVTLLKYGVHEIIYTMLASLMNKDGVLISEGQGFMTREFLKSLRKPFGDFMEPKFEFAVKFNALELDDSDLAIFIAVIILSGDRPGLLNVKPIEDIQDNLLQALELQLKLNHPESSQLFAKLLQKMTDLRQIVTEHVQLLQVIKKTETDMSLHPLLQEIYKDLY

Legend:
[1] = target: T1, Peroxisome proliferator-activated receptor gamma (Homo sapiens, UniProt P37231); test: Agonist response against human PPAR gamma in transactivation assay; type: functional
[2] = target: T1, Peroxisome proliferator-activated receptor gamma; test: In vitro binding affinity for human PPAR gamma

With `CCCc1cc2c(oc(=O)n2C(C)C)c(CCC)c1O[C@H](C(=O)O)c1ccc(C(C)C)cc1` the EC50 [1] was 140 nM and the IC50 [2] was 51 nM.
